This test addresses T1, Dimer of Gag-Pol polyprotein [489-587] (Human immunodeficiency virus 1, UniProt P12497).
T1 construct: 489-587
In words: Protease Inhibition Assay. To be noted: pH 5.6; 37 °C. As for the experimental part:
Protease activity was measured by continuous chromogenic assay. The chromogenic peptide His-Lys-Ala-Arg-Val-Leu- (p-NO2-Phe)-Glu-Ala-Nleu-Ser (Bachem) was used as a substrate. Reactions were followed by the decrease of absorbance at 300 nm measured by spectrophotometer. Experimental results were analyzed by the nonlinear regression analysis, using a mathematical model for tight binding inhibitors.

Structures are written as SMILES.

The term Ki denotes the equilibrium dissociation constant of an inhibitor or competing ligand from its target. High values mean a looser hold on the target, low ones a stronger hold on the target. On to `CC(C)(C)N(CCO)C(=O)c1ccccc1CCC(O)Cc1ccccc1C(=O)N(CCO)C(C)(C)C` (stereo unspecified) [N-tert-butyl-2-(4-{2-[tert-butyl(2-hydroxyethyl)carbamoyl]phenyl}-3-hydroxybutyl)-N-(2-hydroxyethyl)benzamide], for which the Ki is 1100 nM.

For the origin of these results see BindingDB's records for doi:10.1073/pnas.92.8.3298 (Agouron Pharmaceuticals, 1995).
